Assay results: ChEMBL document CHEMBL5104100, “Synthesis and Preclinical Characterization of LY3154885, a Human Dopamine D1 Receptor Positive Allosteric Modulator with an Improved Nonclinical Drug-Drug Interaction Risk Profile” (J Med Chem, 2022)

The chains behind the UniProt entries cited, without tags or fusion partners.
UniProt Q01959, whole entry: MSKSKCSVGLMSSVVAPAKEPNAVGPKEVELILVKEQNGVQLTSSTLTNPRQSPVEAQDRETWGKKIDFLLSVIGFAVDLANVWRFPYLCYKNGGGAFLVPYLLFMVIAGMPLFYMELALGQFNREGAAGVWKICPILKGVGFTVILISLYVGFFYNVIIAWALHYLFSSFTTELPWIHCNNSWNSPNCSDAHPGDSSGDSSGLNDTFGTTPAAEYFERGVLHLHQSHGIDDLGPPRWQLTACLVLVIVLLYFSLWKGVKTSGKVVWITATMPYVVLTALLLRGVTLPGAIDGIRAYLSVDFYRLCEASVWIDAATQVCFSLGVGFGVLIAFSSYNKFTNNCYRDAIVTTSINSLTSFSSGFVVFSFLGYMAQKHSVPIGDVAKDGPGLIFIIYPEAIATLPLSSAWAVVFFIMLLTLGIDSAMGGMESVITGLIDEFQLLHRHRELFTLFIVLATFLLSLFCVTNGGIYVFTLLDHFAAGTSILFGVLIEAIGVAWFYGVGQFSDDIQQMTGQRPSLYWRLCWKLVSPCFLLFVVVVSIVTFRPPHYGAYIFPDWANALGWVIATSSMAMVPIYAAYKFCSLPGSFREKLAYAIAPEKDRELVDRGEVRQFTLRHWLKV

Experiments:
[1] = target: Sodium-dependent dopamine transporter (Homo sapiens) (UniProt Q01959); experiment: Inhibition of dopamine transporter (unknown origin) at 10 uM relative to control
[2] = target: Sodium-dependent dopamine transporter (Homo sapiens) (UniProt Q01959); experiment: Inhibition of dopamine transporter (unknown origin) at 1 uM relative to control

Question: Which inhibition [1] does the source give for `C[C@H]1c2cccc(-c3cnn(C)c3)c2C[C@H](CO)N1C(=O)Cc1c(Cl)cccc1Cl` here?
Answer: 62%

Question: And the inhibition [2]?
Answer: 23%
